The source of these data is US20230348487A1, “2-AMINOPYRIMIDINE COMPOUND AND PHARMACEUTICAL COMPOSITION THEREOF AND APPLICATION THEREOF” (GUANGZHOU SALUSTIER BIOSCIENCES CO., LTD., priority 2021, published 2023).

Protein sequences, listed by entry. Tags and fused reporters are not part of them. Lines headed by an entry give the natural chain unless they say otherwise; changes in a name come on top.
UniProt P52333: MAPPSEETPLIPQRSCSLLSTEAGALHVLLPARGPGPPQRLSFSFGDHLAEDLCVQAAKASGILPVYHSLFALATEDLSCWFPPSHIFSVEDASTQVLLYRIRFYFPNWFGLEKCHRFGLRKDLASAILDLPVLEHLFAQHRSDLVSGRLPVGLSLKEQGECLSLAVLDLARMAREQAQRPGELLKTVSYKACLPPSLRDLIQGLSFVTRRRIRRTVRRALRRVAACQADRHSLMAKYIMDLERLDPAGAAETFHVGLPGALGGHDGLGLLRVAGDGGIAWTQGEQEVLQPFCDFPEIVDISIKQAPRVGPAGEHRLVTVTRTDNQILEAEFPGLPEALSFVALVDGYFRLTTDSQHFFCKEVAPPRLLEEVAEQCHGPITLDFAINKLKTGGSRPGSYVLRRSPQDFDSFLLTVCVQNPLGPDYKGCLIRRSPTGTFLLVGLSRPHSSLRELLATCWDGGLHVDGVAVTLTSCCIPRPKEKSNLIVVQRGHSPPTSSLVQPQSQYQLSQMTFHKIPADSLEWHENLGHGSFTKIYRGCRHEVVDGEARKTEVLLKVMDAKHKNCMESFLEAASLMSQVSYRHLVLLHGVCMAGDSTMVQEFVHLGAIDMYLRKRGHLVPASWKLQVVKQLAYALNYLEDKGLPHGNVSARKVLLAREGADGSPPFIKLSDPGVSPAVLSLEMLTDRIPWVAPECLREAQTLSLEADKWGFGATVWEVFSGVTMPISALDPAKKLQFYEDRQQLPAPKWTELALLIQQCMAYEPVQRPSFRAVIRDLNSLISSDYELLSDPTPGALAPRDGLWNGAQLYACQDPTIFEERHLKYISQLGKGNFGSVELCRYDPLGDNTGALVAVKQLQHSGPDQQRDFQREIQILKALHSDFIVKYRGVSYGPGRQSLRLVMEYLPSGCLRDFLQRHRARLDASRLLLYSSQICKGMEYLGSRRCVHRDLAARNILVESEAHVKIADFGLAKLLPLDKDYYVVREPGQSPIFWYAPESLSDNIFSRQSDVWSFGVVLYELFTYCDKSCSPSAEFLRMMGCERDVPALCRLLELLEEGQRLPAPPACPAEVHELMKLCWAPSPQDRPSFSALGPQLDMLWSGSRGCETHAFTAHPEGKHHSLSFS

In this experiment the target is JAK3 (Homo sapiens (Human), UniProt P52333). Description: Z′-Lyte kinase inhibitory activity test. Type of experiment: biochemical.

Each structure is given as a SMILES string.

With `C=CC(=O)Nc1cc(Nc2ncc(Cl)c(O[C@@H]3CO[C@H]4[C@@H]3OC[C@H]4OC)n2)ccc1N(C)CCN(C)C` [LS 6-45], the “JAK3 kinase inhibitory activity and selectivity (in words)” value was “strong and selective JAK3 kinase inhibitory activity”.
